{"sequences": {"note": "By UniProt entry, the sequences of proteins in these tests, tags left out.", "UniProt Q07817, whole entry, looked up": "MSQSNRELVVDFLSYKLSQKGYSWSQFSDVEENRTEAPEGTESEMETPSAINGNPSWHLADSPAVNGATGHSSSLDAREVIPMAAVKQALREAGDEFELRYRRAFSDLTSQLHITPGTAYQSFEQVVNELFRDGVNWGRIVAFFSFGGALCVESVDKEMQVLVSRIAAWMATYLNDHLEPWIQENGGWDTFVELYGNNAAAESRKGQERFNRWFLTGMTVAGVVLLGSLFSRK"}, "source": "PubChem BioAssay AID2129", "about": "(The Scripps Research Institute Molecular Screening Center, 2009)", "note": "Only a part is listed here, and it is no random draw. Active and inactive are the calls of the source.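 Rule for the calls: active = inhibition above the mean of all tested compounds plus 3 SD, cutoff set per campaign (cut at about 30% in these data); inactive = the rest.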", "data": [{"molecular_target": "Bcl-2-like protein 1 (Homo sapiens) (UniProt Q07817)", "experiment": "inhibitors of human Bcl-xL, primary screen, biochemical, fluorescence polarization, HTS (AID 2129);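 note: 0% = DMSO wells and 100% = unlabeled Bim-BH3 peptide competitor; inhibitors lower millipolarization by displacing the labeled peptide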", "conditions": "GST-Bcl-xL / FITC-Bim BH3 peptide fluorescence polarization; at 10.9 µM; stronger effect = higher value", "values": [{"smiles": "Cc1nn(-c2ccccc2)c2c1P(=O)(N1CCOCC1)N(C)C(c1ccccc1)=N2", "note": "(stereo not given)", "inhibition": "inactive: 0.18%"}, {"smiles": "Cc1ccc(C(=O)OC2CN3CCC2CC3)cc1", "note": "(stereo not given)", "inhibition": "inactive: 2.83%"}, {"smiles": "CC1CCC(C(C)C)C(OP(=O)(Nc2ccccn2)c2ccccc2)C1", "note": "(stereo not given)", "inhibition": "inactive: 3.07%"}, {"smiles": "O=C(/C=C/c1ccccc1)OC1CN2CCC1CC2", "note": "(stereo not given)", "inhibition": "inactive: -4.96%"}, {"smiles": "CN(C)C1(CNC(=O)c2ccc(S(C)(=O)=O)cc2)CCCCC1", "inhibition": "inactive: 4.62%"}, {"smiles": "O=P1(Nc2ncccn2)COc2ccccc2OC1", "inhibition": "inactive: 0.55%"}, {"smiles": "NS(=O)(=O)c1cccc(NC(=O)COC(=O)C(O)(c2ccccc2)c2ccccc2)c1", "inhibition": "inactive: 1.38%"}, {"smiles": "O=P1(Nc2ccc(Br)cn2)COc2ccccc2OC1", "inhibition": "inactive: 5.34%"}, {"smiles": "Cc1ccc(OCC(=O)OC2CN3CCC2CC3)cc1", "note": "(stereo not given)", "inhibition": "inactive: 4.31%"}, {"smiles": "O=[As](O)(c1cccs1)c1cccs1", "inhibition": "inactive: 2.49%"}, {"smiles": "Nc1cccc([As](=O)(O)c2ccccc2)c1", "inhibition": "inactive: 3%"}, {"smiles": "CN(CCCl)Cc1cc(Cl)c(NC2=NCCN2)c(Cl)c1", "inhibition": "inactive: 9.76%"}, {"smiles": "CCOP(=O)(Nc1ccc(C)cn1)OCC", "inhibition": "inactive: 2.16%"}, {"smiles": "CCC1=CC2Cc3nc4ccc(Cl)cc4c(N)c3C(C1)C2", "note": "(stereo not given)", "inhibition": "inactive: 8.04%"}, {"smiles": "O=P1(Nc2ccccn2)COc2ccccc2OC1", "inhibition": "inactive: 0.02%"}, {"smiles": "CCOP(=O)(NC(=NC(C)c1ccccc1)NC(C)c1ccccc1)OCC", "note": "(stereo not given)", "inhibition": "inactive: 0.75%"}, {"smiles": "Clc1n[nH]nc1-c1nn[nH][15n]1", "inhibition": "inactive: 11.2%"}, {"smiles": "CC(C)(C)C(=O)NC(Sc1ncccn1)C(Cl)(Cl)Cl", "note": "(stereo not given)", "inhibition": "inactive: 3.78%"}, {"smiles": "COc1ccccc1CNC(=O)COC(=O)C(O)(c1ccccc1)c1ccccc1", "inhibition": "inactive: 0.84%"}, {"smiles": "O=[As](O)(c1ccccc1Br)c1ccccc1Br", "inhibition": "inactive: -1.81%"}, {"smiles": "CC1(CBr)Cn2c(nc3ccccc3c2=O)S1", "note": "(stereo not given)", "inhibition": "inactive: 4.27%"}, {"smiles": "CN(C(=O)Cc1ccc(Cl)c(Cl)c1)[C@@H]1CCCC[C@H]1N1CCCC1", "inhibition": "inactive: 8.14%"}, {"smiles": "CC(C)/C=N\\N=C(\\N)N[N+](=O)[O-]", "inhibition": "inactive: 3.56%"}, {"smiles": "COc1cc(C(=O)NCC2(N3CCOCC3)CCCCC2)cc(Cl)c1OC(C)C", "inhibition": "inactive: 0.13%"}, {"smiles": "O=[As](O)(O)c1cccnc1", "inhibition": "inactive: 0.88%"}, {"smiles": "CS(=O)(=O)c1ccc(Cl)c(NC(=O)COC(=O)C(O)(c2ccccc2)c2ccccc2)c1", "inhibition": "inactive: 2.8%"}, {"smiles": "O=C(OC1CN2CCC1CC2)c1ccc(Cl)cc1", "note": "(stereo not given)", "inhibition": "inactive: -0.31%"}, {"smiles": "O=[As](O)(c1cccc(O)c1)c1cccc(O)c1", "inhibition": "inactive: 8.76%"}, {"smiles": "Cc1cccc(OCC(=O)OC2CN3CCC2CC3)c1", "note": "(stereo not given)", "inhibition": "inactive: 9.22%"}, {"smiles": "CCCOP(=S)(Nc1nc(N)cc(=O)[nH]1)OCCC", "inhibition": "inactive: 1.54%"}, {"smiles": "Cc1ccc(NCCc2c([N+](=O)[O-])cc([N+](=O)[O-])cc2[N+](=O)[O-])cc1", "inhibition": "inactive: 10.3%"}, {"smiles": "COc1cc(C2NCCC3(OCCO3)C2(C)C)cc(OC)c1OC", "note": "(stereo not given)", "inhibition": "inactive: -4.42%"}, {"smiles": "CCOP(=O)(Nc1cccc2ccccc12)OCC", "inhibition": "inactive: 3.8%"}, {"smiles": "CS(=O)(=O)c1cc([N+](=O)[O-])c2no[n+]([O-])c2c1", "inhibition": "active: 50.4%"}, {"smiles": "CCOP1(=S)c2c(C)nn(CCC#N)c2N=C(c2ccccc2F)N1C", "note": "(stereo not given)", "inhibition": "inactive: 1.02%"}, {"smiles": "O=P(Nc1nccs1)(c1ccccc1)c1nc2ccccc2s1", "note": "(stereo not given)", "inhibition": "inactive: -8.11%"}, {"smiles": "O=P(Nc1nccs1)(Oc1ccccc1)Oc1ccccc1", "inhibition": "inactive: -0.85%"}, {"smiles": "O=C(O)COc1ccc([As](=O)(O)O)cc1[N+](=O)[O-]", "inhibition": "inactive: -1.27%"}, {"smiles": "Nc1ccccc1[As](=O)(O)c1ccccc1", "inhibition": "inactive: 0.73%"}, {"smiles": "NC(=O)Nc1ccc([As](=O)(O)O)cc1", "inhibition": "inactive: 7.65%"}, {"smiles": "CN(C)C(=O)c1cc([N+](=O)[O-])cc2c1-c1c(cc([N+](=O)[O-])cc1[N+](=O)[O-])C2=O", "inhibition": "inactive: 3.31%"}, {"smiles": "O=[N+]([O-])c1ccc2c(c1)nnn2O", "inhibition": "inactive: 8.2%"}, {"smiles": "CN(C(=O)Cc1ccc(Cl)c(Cl)c1)[C@H]1CC[C@@]2(CCCO2)C[C@@H]1N1CCCC1", "inhibition": "inactive: 8.26%"}, {"smiles": "N#CCCN(C(=O)COC(=O)C(O)(c1ccccc1)c1ccccc1)c1ccc(F)cc1", "inhibition": "inactive: 1.74%"}, {"smiles": "CN(C(=O)Cc1ccccc1)[C@@H]1CC[C@]2(CCCO2)C[C@H]1N1CCCC1", "inhibition": "inactive: 8.37%"}, {"smiles": "CCOP1(=S)c2c(C)nn(CCC#N)c2N=C(c2ccc(F)cc2)N1C", "note": "(stereo not given)", "inhibition": "inactive: 4.61%"}, {"smiles": "O=[As](O)(c1ccc(O)cc1)c1ccccc1O", "inhibition": "inactive: -1.7%"}, {"smiles": "C[As](=O)(O)c1cccc(C(=O)O)c1", "inhibition": "inactive: 3.92%"}, {"smiles": "COc1cc(C(=O)NCC2(N3CCOCC3)CCCCC2)ccc1OCC(C)C", "inhibition": "inactive: 0.87%"}, {"smiles": "Cc1ccc2nc3c(c(C)c2c1)CC(C(Cl)Cl)S3", "note": "(stereo not given)", "inhibition": "inactive: 5.29%"}, {"smiles": "Cc1ccc(OP(=O)(Nc2ccc([N+](=O)[O-])cn2)Oc2ccc(C)cc2)cc1", "inhibition": "inactive: 2.63%"}, {"smiles": "CC(C)c1ccc(OP(=O)(Nc2ccccn2)Oc2ccccc2F)cc1", "note": "(stereo not given)", "inhibition": "inactive: -1.72%"}, {"smiles": "ClCCSc1nnc(-c2cccnc2)o1", "inhibition": "inactive: 0.97%"}, {"smiles": "CCN(CC)C(=S)SC(NC=O)C(Cl)(Cl)Cl", "note": "(stereo not given)", "inhibition": "inactive: -2.4%"}, {"smiles": "CC(C)NC(=O)NP(=O)(Oc1ccccc1)Oc1ccccc1", "inhibition": "inactive: 1.5%"}, {"smiles": "O=[N+]([O-])c1cc([N+](=O)[O-])c(-c2ccn[nH]2)s1", "inhibition": "inactive: 4.65%"}, {"smiles": "O=C(OC1CN2CCC1CC2)C12CC3CC(CC(C3)C1)C2", "note": "(stereo not given)", "inhibition": "inactive: 3.79%"}, {"smiles": "Cc1cc(=O)[nH]c(N[N+](=O)[O-])n1", "inhibition": "inactive: -2.41%"}, {"smiles": "Cc1c2c(nc3ccccc13)SC(C(Cl)Cl)C2", "note": "(stereo not given)", "inhibition": "inactive: 6.76%"}, {"smiles": "COc1ccc2nc(NP(=O)(c3ccccc3)c3ccccc3)sc2c1", "inhibition": "inactive: 6.4%"}, {"smiles": "COc1cc(I)ccc1[As](=O)(O)O", "inhibition": "inactive: 5.6%"}, {"smiles": "COc1ccc(N/C(=N/P(=O)(N2CCOCC2)N2CCOCC2)N2CCOCC2)cc1", "inhibition": "inactive: 9.1%"}, {"smiles": "COP1(=S)c2c(C)nn(CCC#N)c2N=C(c2ccc(F)cc2)N1C", "note": "(stereo not given)", "inhibition": "inactive: 4.38%"}, {"smiles": "O=C(COc1ccccc1)OC1CN2CCC1CC2", "note": "(stereo not given)", "inhibition": "inactive: -2.97%"}, {"smiles": "O=C(Nc1ccncc1[N+](=O)[O-])c1ccc([N+](=O)[O-])cc1[N+](=O)[O-]", "inhibition": "inactive: 2.53%"}]}]}
